From patent US4880938A, “Amino acid analogs” (priority 1986, dated 1989)

Protein sequences, listed by entry. Tags and fused reporters are not part of them.
UniProt P30551, whole entry: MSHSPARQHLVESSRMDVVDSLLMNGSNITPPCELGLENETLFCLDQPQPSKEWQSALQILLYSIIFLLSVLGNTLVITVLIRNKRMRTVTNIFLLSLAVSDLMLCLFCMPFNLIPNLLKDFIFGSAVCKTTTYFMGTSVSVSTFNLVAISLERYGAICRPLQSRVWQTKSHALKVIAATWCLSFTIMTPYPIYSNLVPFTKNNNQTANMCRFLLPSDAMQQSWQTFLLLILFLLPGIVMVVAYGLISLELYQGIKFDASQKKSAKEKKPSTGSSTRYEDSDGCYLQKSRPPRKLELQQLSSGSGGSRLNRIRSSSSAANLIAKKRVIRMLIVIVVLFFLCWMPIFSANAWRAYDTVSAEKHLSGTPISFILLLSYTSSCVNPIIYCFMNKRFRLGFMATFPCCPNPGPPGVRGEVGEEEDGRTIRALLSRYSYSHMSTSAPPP

Target: T1, CCK receptor (pancreas) (Rattus norvegicus, UniProt P30551)
T1 construct: The whole pancreas of a male Sprague-Dawley rat (200-350 g); from tissue; host or cells: whole pancreas of male Sprague-Dawley rat, membrane homogenate
Assay: 125I-CCK-33 receptor binding (pancreas) method
Set-up: species or system rat (male Sprague-Dawley)
Conditions: 125I-CCK-33, rat pancreas membranes, 37° C., 30 minutes
Source text: Screening of the novel compounds according to the present invention to determine biological activity and obtain an IC50 value for them, in order to identify significant CCK-antagonism, may be accomplished using an ^125 I-CCK receptor binding assay and in vitro isolated tissue preparations. […] These tests involve the following:
CCK receptor binding (pancreas) method
CCK-33 was radiolabeled with ^125 I-Bolton Hunter reagent (2000 Ci/mmole), as described by Sankara et al. (J. Biol. Chem., 254, 9349-9351, 1979).
The whole pancreas of a male Sprague-Dawley rat (200-350 g), which had been sacrificed by decapitation, was dissected free of fat tissue and homogenized in 20 volumes of ice-cold 50 mM Tris HCl (pH 7.7 at 25° C.) with a Brinkmann Polytron PT-10. The homogenates were centrifuged at 48,000 g for 10 minutes, then the resulting pellets were resuspended in Tris Buffer, centrifuged as above, and resuspended in 200 volumes of binding assay buffer (50 mM Tris HCl, pH 7.7 at 25° C., 5 mM dithiothreitol, 0.1 mM bacitracin, 1.2 mM phenylmethane sulfonyl fluoride and 0.5 mM o-phenanthroline).
The supernatant was aspirated and discarded, and the pellets were counted with a Beckman Gamma 5000.

IC50 [µM]	SMILES
3.7	CCCN(CCC)C(=O)[C@H](CCC(=O)O)NC(=O)c1cc2ccccc2[nH]1 [Compound 3, (S)-5-(dipropylamino)-4-[(1H-indol-2-yl-carbonyl)amino]-5-oxo-pentanoic acid]
1.1	CCCN(CCC)C(=O)[C@@H](CCC(=O)O)NC(=O)c1cc2ccccc2[nH]1 [Compound 4]
